This is an account of results in US20250236609A1, “VPS34 INHIBITORS AND METHODS OF USE THEREOF” (Deciphera Pharmaceuticals, LLC, priority 2023, published 2025).

The chains behind the UniProt entries cited, without tags or fusion partners. Where a name states a change or a piece, a line headed by the entry shows the natural chain unless it says otherwise.
UniProt P42336, whole entry: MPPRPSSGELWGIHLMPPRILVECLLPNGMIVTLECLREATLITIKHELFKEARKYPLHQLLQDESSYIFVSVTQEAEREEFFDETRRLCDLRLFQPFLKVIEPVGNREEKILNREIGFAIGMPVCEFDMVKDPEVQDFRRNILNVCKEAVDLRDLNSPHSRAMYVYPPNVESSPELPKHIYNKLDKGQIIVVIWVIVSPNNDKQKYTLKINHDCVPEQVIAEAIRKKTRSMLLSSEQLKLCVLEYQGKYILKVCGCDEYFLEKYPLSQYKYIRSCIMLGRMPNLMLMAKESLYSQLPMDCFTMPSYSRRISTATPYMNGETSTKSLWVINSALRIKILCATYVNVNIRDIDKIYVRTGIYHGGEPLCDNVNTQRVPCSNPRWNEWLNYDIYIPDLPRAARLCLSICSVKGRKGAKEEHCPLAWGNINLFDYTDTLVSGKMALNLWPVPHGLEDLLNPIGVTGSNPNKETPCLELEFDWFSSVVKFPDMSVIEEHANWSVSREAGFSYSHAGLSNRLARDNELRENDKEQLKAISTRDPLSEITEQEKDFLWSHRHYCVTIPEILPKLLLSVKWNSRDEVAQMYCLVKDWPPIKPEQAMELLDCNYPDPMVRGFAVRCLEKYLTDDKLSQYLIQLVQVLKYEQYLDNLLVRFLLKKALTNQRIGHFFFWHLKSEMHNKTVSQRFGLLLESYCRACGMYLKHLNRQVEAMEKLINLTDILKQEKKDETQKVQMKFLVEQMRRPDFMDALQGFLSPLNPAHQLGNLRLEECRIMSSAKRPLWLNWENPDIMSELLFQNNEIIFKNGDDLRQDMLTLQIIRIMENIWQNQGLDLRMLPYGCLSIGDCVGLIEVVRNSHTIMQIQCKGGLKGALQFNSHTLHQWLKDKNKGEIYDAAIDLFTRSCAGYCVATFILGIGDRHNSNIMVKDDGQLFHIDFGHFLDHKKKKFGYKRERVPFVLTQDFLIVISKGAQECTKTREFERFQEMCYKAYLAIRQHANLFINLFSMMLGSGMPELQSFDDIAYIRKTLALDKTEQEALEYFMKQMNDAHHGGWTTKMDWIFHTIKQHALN
UniProt P42336, whole entry E542K: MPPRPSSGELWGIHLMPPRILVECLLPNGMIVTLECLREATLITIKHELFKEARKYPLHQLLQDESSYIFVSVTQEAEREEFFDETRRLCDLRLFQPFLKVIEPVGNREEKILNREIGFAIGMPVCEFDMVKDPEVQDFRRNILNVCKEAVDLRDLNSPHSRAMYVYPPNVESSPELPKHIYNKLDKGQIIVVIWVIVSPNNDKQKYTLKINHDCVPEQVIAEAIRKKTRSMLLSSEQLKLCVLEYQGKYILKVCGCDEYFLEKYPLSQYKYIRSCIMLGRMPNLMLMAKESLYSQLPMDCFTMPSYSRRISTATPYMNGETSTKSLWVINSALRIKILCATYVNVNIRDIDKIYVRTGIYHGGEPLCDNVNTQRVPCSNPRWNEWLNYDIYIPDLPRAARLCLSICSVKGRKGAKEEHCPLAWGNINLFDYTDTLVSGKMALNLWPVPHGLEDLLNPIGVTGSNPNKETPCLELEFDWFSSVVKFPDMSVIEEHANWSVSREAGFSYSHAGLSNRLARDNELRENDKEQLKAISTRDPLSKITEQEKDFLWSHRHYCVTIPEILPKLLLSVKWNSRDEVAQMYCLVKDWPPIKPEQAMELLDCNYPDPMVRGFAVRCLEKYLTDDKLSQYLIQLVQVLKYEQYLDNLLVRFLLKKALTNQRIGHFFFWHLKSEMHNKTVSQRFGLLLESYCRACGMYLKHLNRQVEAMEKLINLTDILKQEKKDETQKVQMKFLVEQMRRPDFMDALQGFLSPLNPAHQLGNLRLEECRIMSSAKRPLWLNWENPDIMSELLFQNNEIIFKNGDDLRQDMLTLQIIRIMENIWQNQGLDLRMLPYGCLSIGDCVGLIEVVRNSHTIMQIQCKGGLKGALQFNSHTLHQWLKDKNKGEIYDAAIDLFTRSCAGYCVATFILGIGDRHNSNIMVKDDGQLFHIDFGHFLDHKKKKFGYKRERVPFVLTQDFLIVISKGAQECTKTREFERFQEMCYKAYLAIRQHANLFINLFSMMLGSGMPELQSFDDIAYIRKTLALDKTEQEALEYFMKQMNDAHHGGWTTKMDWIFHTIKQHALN
UniProt P42336, whole entry E545K: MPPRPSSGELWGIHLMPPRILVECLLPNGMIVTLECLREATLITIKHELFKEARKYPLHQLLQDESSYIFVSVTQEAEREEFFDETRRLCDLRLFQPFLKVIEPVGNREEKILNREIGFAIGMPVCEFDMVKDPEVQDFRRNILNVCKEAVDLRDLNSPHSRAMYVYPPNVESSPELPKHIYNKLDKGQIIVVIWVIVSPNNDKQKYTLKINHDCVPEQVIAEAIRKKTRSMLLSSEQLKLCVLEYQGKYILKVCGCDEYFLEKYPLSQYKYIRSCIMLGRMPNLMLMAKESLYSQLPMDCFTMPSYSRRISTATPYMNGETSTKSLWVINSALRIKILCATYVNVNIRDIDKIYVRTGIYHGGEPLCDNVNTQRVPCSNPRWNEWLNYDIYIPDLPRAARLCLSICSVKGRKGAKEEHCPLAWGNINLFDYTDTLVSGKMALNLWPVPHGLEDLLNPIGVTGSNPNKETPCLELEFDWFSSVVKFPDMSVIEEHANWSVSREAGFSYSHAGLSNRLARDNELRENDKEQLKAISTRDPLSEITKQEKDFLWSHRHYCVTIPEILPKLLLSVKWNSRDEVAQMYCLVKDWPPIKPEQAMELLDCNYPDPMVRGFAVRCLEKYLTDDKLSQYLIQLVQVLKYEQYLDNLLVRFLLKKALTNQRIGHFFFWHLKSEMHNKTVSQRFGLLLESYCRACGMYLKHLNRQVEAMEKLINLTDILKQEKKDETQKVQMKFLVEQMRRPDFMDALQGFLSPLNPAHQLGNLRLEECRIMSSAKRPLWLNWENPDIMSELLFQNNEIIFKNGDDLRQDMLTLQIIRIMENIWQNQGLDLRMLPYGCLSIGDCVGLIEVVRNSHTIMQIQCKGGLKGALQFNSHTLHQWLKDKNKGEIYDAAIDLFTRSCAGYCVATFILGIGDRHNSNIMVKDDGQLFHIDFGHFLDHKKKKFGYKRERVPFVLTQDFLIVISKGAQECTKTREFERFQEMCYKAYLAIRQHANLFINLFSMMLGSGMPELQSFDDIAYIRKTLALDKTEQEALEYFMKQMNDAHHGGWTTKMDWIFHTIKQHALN
UniProt P42336, whole entry H1047R: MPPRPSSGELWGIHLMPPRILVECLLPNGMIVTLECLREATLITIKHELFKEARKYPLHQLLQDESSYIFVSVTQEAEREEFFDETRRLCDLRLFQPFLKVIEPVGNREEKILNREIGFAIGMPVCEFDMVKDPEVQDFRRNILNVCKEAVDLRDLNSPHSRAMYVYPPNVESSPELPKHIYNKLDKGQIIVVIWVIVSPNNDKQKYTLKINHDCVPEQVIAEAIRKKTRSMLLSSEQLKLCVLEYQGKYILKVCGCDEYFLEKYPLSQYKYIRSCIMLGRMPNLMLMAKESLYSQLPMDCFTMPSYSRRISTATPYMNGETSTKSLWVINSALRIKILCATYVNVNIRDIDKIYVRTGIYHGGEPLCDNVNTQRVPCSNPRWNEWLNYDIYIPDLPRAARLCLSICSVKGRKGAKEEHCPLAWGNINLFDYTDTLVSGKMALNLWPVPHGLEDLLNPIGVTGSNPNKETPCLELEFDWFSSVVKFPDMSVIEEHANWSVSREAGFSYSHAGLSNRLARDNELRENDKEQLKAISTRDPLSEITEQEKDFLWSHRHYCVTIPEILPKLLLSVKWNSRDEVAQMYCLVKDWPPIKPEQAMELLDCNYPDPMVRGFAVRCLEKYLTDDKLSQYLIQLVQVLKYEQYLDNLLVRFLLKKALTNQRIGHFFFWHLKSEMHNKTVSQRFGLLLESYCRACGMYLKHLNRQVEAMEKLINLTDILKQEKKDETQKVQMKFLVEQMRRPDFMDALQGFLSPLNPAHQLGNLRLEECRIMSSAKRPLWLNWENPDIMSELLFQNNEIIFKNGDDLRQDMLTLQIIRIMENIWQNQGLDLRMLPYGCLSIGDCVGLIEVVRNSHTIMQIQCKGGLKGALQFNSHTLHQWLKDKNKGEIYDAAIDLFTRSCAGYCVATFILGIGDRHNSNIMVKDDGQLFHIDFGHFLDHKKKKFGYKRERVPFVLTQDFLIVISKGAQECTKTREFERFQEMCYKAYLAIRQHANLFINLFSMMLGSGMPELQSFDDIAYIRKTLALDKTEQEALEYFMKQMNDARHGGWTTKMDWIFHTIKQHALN
UniProt O00443, whole entry: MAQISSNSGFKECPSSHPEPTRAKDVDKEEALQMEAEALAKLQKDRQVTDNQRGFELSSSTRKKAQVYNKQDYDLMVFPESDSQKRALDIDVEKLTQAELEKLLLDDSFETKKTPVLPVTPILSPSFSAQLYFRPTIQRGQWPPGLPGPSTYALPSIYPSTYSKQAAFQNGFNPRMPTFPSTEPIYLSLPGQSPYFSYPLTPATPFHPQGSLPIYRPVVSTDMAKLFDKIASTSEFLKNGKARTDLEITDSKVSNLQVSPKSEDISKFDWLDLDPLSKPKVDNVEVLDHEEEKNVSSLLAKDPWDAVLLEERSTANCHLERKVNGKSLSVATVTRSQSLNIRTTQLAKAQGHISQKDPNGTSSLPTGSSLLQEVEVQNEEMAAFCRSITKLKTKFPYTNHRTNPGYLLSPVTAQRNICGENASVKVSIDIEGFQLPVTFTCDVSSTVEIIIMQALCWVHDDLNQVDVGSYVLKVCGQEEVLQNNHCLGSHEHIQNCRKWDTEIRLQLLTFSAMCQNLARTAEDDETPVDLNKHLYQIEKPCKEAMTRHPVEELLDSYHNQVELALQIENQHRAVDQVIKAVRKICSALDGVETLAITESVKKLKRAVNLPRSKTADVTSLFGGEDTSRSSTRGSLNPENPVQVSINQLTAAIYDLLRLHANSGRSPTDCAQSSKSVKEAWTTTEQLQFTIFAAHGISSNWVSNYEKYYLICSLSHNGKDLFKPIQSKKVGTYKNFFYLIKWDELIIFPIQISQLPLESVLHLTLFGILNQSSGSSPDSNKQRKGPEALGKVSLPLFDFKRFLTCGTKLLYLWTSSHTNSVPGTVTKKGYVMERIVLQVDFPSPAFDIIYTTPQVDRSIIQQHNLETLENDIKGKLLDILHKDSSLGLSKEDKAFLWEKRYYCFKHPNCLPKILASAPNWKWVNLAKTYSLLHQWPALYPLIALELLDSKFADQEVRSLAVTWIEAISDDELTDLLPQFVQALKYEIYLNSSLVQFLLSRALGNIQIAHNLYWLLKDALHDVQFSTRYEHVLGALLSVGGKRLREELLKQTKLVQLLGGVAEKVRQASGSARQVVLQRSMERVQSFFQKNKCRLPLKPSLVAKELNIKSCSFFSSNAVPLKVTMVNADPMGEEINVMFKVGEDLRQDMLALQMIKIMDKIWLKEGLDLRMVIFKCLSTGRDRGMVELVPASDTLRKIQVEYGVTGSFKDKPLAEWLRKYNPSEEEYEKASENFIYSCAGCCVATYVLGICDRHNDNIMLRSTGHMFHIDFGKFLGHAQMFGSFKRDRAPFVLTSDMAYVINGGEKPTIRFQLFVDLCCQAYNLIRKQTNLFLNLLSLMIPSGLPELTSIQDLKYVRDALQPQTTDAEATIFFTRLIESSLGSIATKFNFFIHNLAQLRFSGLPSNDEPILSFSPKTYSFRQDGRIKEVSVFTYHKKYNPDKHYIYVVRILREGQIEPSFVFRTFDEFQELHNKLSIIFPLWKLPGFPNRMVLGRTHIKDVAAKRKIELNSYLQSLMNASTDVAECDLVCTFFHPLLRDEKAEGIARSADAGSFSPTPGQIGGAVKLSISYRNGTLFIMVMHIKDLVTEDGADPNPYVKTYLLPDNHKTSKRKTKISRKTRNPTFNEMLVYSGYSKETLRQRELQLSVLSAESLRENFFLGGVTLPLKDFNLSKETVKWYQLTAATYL

One may read the IC50 as the concentration at which inhibition is half-maximal.

SMILES strings stand for the structures.

The target in assay [1] is PI3K (p110α (E542K)/p85α) (Homo sapiens (Human), UniProt P42336, E542K). Put plainly: Lipid kinase selectivity panel (Reaction Biology). Particulars: 1 μM compound, single dose duplicates, 10 μM ATP. In kind it is biochemical. The method, then:
(§1) The compounds of the present invention were tested in a standard lipid kinase selectivity panel: 16 other lipid kinases (Reaction Biology, Malvern, PA, USA), under conditions of non-disclosure, non-dissemination, and non-use. In brief, compounds (see Table 2) were tested at in single dose duplicates at 1 μM against lipid kinases, including PI3Kα, PI3Kβ, and PI3Kδ, and reactions were carried out at 10 μM ATP.

For assay [2], the target named is PI3K (p110α (E545K)/p85α) (Homo sapiens (Human), UniProt P42336, E545K). Put plainly: Lipid kinase selectivity panel (Reaction Biology). It is filed as biochemical. Particulars: 1 μM compound, single dose duplicates, 10 μM ATP. As for the experimental part:
as §1

A further assay has as its target PI3K (p110α/p65α) (Homo sapiens (Human), UniProt P42336). The assay can be described thus: Lipid kinase selectivity panel (Reaction Biology). In kind it is biochemical. The settings on record: 1 μM compound, single dose duplicates, 10 μM ATP. The method, then:
as §1

A further assay deals with PI3Kg (p110γ) (Homo sapiens (Human), UniProt P48736). Put plainly: Lipid kinase selectivity panel (Reaction Biology). In kind it is biochemical. Particulars: 1 μM compound, single dose duplicates, 10 μM ATP. As for the experimental part:
as §1

Another assay addresses PI3Kα (p110α/p85α) (Homo sapiens (Human), UniProt P42336). The assay can be described thus: Lipid kinase selectivity panel (Reaction Biology). It is filed as biochemical. Particulars: 1 μM compound, single dose duplicates, 10 μM ATP. As for the experimental part: as §1
The target of another assay is PI3KC2α (Homo sapiens (Human), UniProt O00443). The assay can be described thus: Lipid kinase selectivity panel (Reaction Biology). It is filed as biochemical. The settings on record: 1 μM compound, single dose duplicates, 10 μM ATP. The method, then:
as §1

Assay [3] deals with PI3K (p110α (H1047R)/p85α) (Homo sapiens (Human), UniProt P42336, H1047R). Put plainly: Lipid kinase selectivity panel (Reaction Biology). It is filed as biochemical. Particulars: 1 μM compound, single dose duplicates, 10 μM ATP. As for the experimental part: as §1
For another assay, the target named is PI3Kb (p110β/p85α) (Homo sapiens (Human), UniProt P42338). Put plainly: Lipid kinase selectivity panel (Reaction Biology). It is filed as biochemical. Particulars: 1 μM compound, single dose duplicates, 10 μM ATP. The method, then: as §1
For a further assay, the target named is PI3Kd (p110δ/p85α) (Homo sapiens (Human), UniProt O00329). The assay can be described thus: Lipid kinase selectivity panel (Reaction Biology). It is filed as biochemical. The settings on record: 1 μM compound, single dose duplicates, 10 μM ATP. As for the experimental part:
as §1

The next assay deals with VPS34 (Homo sapiens (Human), UniProt Q8NEB9). The assay can be described thus: Biochemical Assay for VPS34 (ADP-Glo kinase activity assay). Particulars: read-out: VPS34 (Inhibition of biochemical activity of VPS34, IC50); 25 nM VPS34, 1 mM ATP, 1-hour incubation at 37° C. As for the experimental part:
Activity of VPS34 kinase was determined using an ADP-Glo kinase activity assay (Promega Corp). Assays were conducted in 384-well plates (5 μL assay volume) using 25 nM VPS34 (ThermoFisher Scientific), […] PI:3PS Lipid Kinase Substrate (Promega Corp.), and 1 mM ATP in kinase buffer. Inhibition of VPS34 was measured by adding serial diluted test compound (final assay concentration of 0.1% DMSO) followed by a 1-hour incubation at 37° C. ADP-Glo reagent was then added ([…]) followed by a 40 min incubation at rt. Kinase detection reagent was then added ([…]) and followed by a 60 min incubation at rt. Luminescence was then detected. The RLU at each compound concentration of was converted to percent inhibition using controls (i.e., reaction with no test compound and reaction with a known inhibitor) and IC50 values were calculated by fitting a four-parameter sigmoidal curve to the data using GeneData Screener software.
VPS34 Protein Sequence (Full Length with GST Tag)

For the compound `COC(=O)Nc1cc(-c2cc(N3CCCC[C@@H]3C(F)(F)F)[nH]c(=O)c2)c(Cl)cn1`, the “Percent inhibition relative to DMSO control, PI3K (p110α (E542K)/p85α)” value in assay [1] is −9%. Further, in assay [2], the “Percent inhibition relative to DMSO control, PI3K (p110α (E545K)/p85α)” value was found to be 4%. For the same compound, the “Percent inhibition relative to DMSO control, PI3K (p110α/p65α)” value on PI3K (p110α/p65α) turned out to be 8%. Besides, the “Percent inhibition relative to DMSO control, PI3Kg (p110γ)” value at PI3Kg (p110γ) is given as −2%. Moreover, the “Percent inhibition relative to DMSO control, PI3Kα (p110α/p85α)” value at PI3Kα (p110α/p85α) is on record as −10%. Further, the “Percent inhibition relative to DMSO control, PI3KC2α” value at PI3KC2α amounted to 2%. For the same compound, in assay [3], the “Percent inhibition relative to DMSO control, PI3K (p110α (H1047R)/p85α)” value is on record as −2%. Also, the “Percent inhibition relative to DMSO control, PI3Kb (p110β/p85α)” value on PI3Kb (p110β/p85α) was −6%. Besides, on PI3Kd (p110δ/p85α), the “Percent inhibition relative to DMSO control, PI3Kd (p110δ/p85α)” value is 3%. The half-inhibitory concentration (IC50) on VPS34 lay in the range of 0.1 to 0.5 µM.
